Tested on: epidermal growth factor receptor (EGFR) on live A431 cells
Assay: Live-cell imaging, quenching and cycling
Assay type: cell-based
Settings: 4 s, 405 nm, no washing
Protocol: FIG. 4. Live-cell imaging and cycling. A. Cell viability assay determined for A431 cells incubated with FLASH-off 600 (0.15-40 μM, 72 h). […] B. Live-cell quenching experiments using anti-Cetuximab-FLASH-off 647 (657 nm channel, 6.9 mW cm-2) and line profile quenching (10 s, 405 nm 660 channel 660 μW cm^−2). C. […] Scale bars in B=20 μm and in C=5 μm.
FIG. 22. Live-cell quenching experiments. A. Live A431 cell experiments using Cetuximab-FLASH-off 647 and quenched (4s, 405 nm channel) with no washing steps. B. Zoomed in ROI of panel A showing selective staining of the membrane. C. […] Scale bars A & C=10 m, B=5 μm (n=3).
Cyclic imaging was performed during two cycles of staining to selectively distinguish four immune markers (CD45, MHCII, CD4, and CD8) and their abundance in splenocytes (FIG. 20). Statistical analysis of the total number of stained cells per marker matched previously reported values for murine splenocytes (79% CD45, 32% MHCII, 14% CD4 and 2% CD8 FIG. 20). […] While the above experiments were done in fixed cells, FLASH-off probes were also applied to live cells (cultured epidermoid carcinoma A431) to determine i) toxicity and ii) live cell imaging capabilities. […] Live A431 cells were next incubated with Cetuximab-FLASH-off 650 to stain for the epidermal growth factor receptor (EGFR). Distinctive membrane staining was observed, which co-localized with anti-EGFR-MB488 control. […]

## Cetuximab-FLASH-off 650: Cetuximab conjugated with FLASH-off 650 to stain EGFR
  signal quenching in live cells (in words): complete signal quenching
Listed as Cetuximab-FLASH-off 647
  signal quenching in live cells (in words): efficient quenching effect
